HCMV NEC inh: inhibitors of HCMV UL50-UL53 nuclear egress complex interaction. HTRF UL50-UL53 interaction, normalized percent inhibition. inhibition, % (test concentration not listed). 190,000 compounds, 0.15% hits. AID 1918969; in the data active means inhibition above about 27%, passing the limit was not always enough
GIV Gai3 FP: inhibitors of GIV GBA-motif binding to rat Galpha-i3; P08753; Galpha-i3/FITC-GIV peptide fluorescence polarization, 90 min; active compounds read low; scaled: aluminum fluoride 0%, vehicle 100%; percent of control (FP), % (concentration not given with the values); 210,000 compounds, 0.42% hits; AID 1224905;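 active means replicate mean at 85% of control or lower, very high polarization wells dropped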;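 further: wells of about 15 µL received 100 nL stock; the first replicate is given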
Of the large screens only hits and unclear results are named; the others gave an inactive call. The full list was thinned out, with hits kept by preference.

O=c1oc2ccc(Cl)cc2nc1/C=C(\O)c1ccco1	GIV Gai3 FP 2.2
O=c1oc2ccccc2nc1/C=C(\O)c1ccccc1	GIV Gai3 FP 46
CC(C)(C)/C(O)=C/c1nc2ccccc2oc1=O	none (no result: HCMV NEC inh)
Cc1nc(C)c(/C(O)=C/c2nc3cc(Cl)ccc3oc2=O)o1	none (no result: HCMV NEC inh)
Cc1ccc(CNc2ncnc3c2nc2n3CCCCC2)cc1	none (no result: HCMV NEC inh)
Cc1cccc(NC(=O)C2CCN(S(=O)(=O)c3c(C)[nH]c(C)c3C(=O)N3CCCCC3)CC2)n1	none
CCn1c(=O)c2sccc2n2c(CCCC(=O)N3CCC(C(N)=O)CC3)nnc12	none
Oc1ccc2ccccc2c1/C=N/c1nccs1	HCMV NEC inh 108
Oc1ccc2ccccc2c1C=Nc1c(F)c(F)c(F)c(F)c1F	none (no result: GIV Gai3 FP)
COc1cccc(C2=CC(c3ccccc3F)n3ncc(C(=O)Nc4ccc(F)cc4)c3N2)c1 (configuration not stated)	GIV Gai3 FP -60 (no result: HCMV NEC inh)
COc1ccc(C2=CC(c3ccccc3F)n3ncc(C(=O)Nc4ccc(C)cc4)c3N2)cc1 (configuration not stated)	none (no result: HCMV NEC inh)
CCC1CC(C(F)(F)F)n2ncc(C(=O)O)c2N1 (configuration not stated)	none
COc1ccc(CN2CCN(C(=O)Cn3c(=O)c4cccn4c4cccnc43)CC2)c(OC)c1OC	none
CC(=O)Oc1ccc2cc(-c3nnc(-c4ccccc4)o3)c(=O)oc2c1	none
CC(=O)Oc1ccc2cc(-c3nc4c(s3)CCc3ccccc3-4)c(=O)oc2c1	GIV Gai3 FP -79 (no result: HCMV NEC inh)
O=C(CSc1nccn2nc(-c3ccc(F)cc3)cc12)Nc1ccc2c(c1)OCCO2	none
COc1cccc(C2c3c(oc4ccc(C)cc4c3=O)C(=O)N2CCCN(C)C)c1 (configuration not stated)	none (no result: HCMV NEC inh)
O=C1NC(=O)C(=Cc2ccc(-c3ccccc3)o2)C(=O)N1	none (no result: HCMV NEC inh)
CC(C=C1C(=O)NC(=O)NC1=O)c1ccccc1 (configuration not stated)	HCMV NEC inh 62
COc1ccc(-c2nc(OC)c3c4c(sc3n2)CCCC4)cc1	none
O=C1C=C(C(F)(F)F)c2ccc(NC3CCCCC3)c3cccc1c23	GIV Gai3 FP -84 (no result: HCMV NEC inh)
O=C1c2ccccc2C(=O)c2c(NC3CCCCC3)ccc(Nc3ccc(Oc4ccccc4)cc3)c21	none
CC1(C)CC(=O)C2=C(C1)OC(N)=C(C#N)C21C(=O)N(CO)c2ccccc21 (configuration not stated)	none (no result: HCMV NEC inh)
COc1cc(C=C2C(=O)N(C)C(=O)N(C)C2=O)ccc1OS(=O)(=O)c1ccccc1[N+](=O)[O-]	HCMV NEC inh 43
CCOc1cc(/C=C2/C(=O)N(c3ccccc3)N=C2C)ccc1OS(=O)(=O)c1ccccc1[N+](=O)[O-]	none
CC(C)(C)C(=O)/C(C#N)=C/c1ccc2c(c1)OCCO2	none (no result: GIV Gai3 FP)
CC(C)N(Cc1ccccc1)C(=O)CN1C(=O)CSc2cc(S(=O)(=O)N3CCCC3)ccc21	none (no result: HCMV NEC inh)
C=CC(=O)Nc1cccc(Oc2ccnc(Nc3ccc(N4CCN(C)CC4)cc3)n2)c1	none (no result: GIV Gai3 FP)
C=CC(=O)Nc1cccc(Oc2ccnc3[nH]ccc23)c1	HCMV NEC inh 33 (no result: GIV Gai3 FP)
O=C(COC(=O)c1cccc2ccccc12)Nc1ccccc1Cl	none (no result: GIV Gai3 FP)
CC1CN(c2ncnc3c2cnn3-c2ccccc2)CC(C)O1 (configuration not stated)	none
O=c1c2cccc3cccc(c32)c2nc3ccccc3n12	none (no result: HCMV NEC inh)
C=CCNc1ccc2c3c1cccc3c(=O)n1c3ccccc3nc21	GIV Gai3 FP -52 (no result: HCMV NEC inh)
COc1ccc(Cl)cc1NC(=O)CSc1nc2ccccc2n1S(=O)(=O)c1ccc(NC(C)=O)cc1	none (no result: HCMV NEC inh)
CCN(CC)S(=O)(=O)c1cccc(C(=O)OCc2nc3ccccc3s2)c1	none (no result: GIV Gai3 FP)
Cc1csc(-c2cc(S(=O)(=O)Nc3ccc(C)c(F)c3)c(C)s2)n1	GIV Gai3 FP 66 (no result: HCMV NEC inh)
Cc1csc(-c2cc(S(=O)(=O)Nc3ccc(S(N)(=O)=O)cc3)c(C)s2)n1	none (no result: HCMV NEC inh)
Cc1ccccc1CN1C(=O)c2ccccc2S(=O)c2ccc(C(=O)NCCC(C)C)cc21 (configuration not stated)	none
CC(C)NC(=O)COc1ccccc1-c1nc(C(C)C)no1	none
COC(=O)c1ccc2c(c1)C1C=CCC1C(c1cccc3ccccc13)N2 (configuration not stated)	none
O=C(O)c1ccc2c(c1)C1C=CCC1C(c1cccc3ccccc13)N2 (configuration not stated)	HCMV NEC inh 35
Oc1ccc(C=Nc2cccc(C(F)(F)F)c2)c(O)c1	none
Oc1ccc(C=Nc2ccc(Nc3ccccc3)cc2)c(O)c1	GIV Gai3 FP 6.8
CCOc1ncccc1C(=O)Nc1ccc(S(=O)(=O)N2CCOCC2)cc1	none (no result: GIV Gai3 FP)
C=CCn1c(=O)/c(=C2/Sc3ccc(OC)cc3N2CC)s/c1=C1\SC(=S)N(CCCC)C1=O	GIV Gai3 FP 42 (no result: HCMV NEC inh)
C=CCn1c(=O)/c(=C2/Sc3ccccc3N2CC)s/c1=C1\SC(=S)N(C)C1=O	none (no result: HCMV NEC inh)
N#Cc1ccc(NC(=O)c2ccc(Br)cc2)cc1	none (no result: GIV Gai3 FP)
N#Cc1ccc(NC(=O)c2cc3cc4c5c(c3oc2=N)CCCN5CCC4)cc1	GIV Gai3 FP -14 (no result: HCMV NEC inh)
CCOC(=O)c1ccc(NC(=O)c2cc3cc(Cl)ccc3oc2=N)cc1	none
Cc1ccc(NC(=O)c2cc3ccccc3oc2=N)cc1	none (no result: HCMV NEC inh)
N=c1oc2c3c4c(cc2cc1C(=O)Nc1ccccc1)CCCN4CCC3	GIV Gai3 FP -62
CCOC(=O)c1ccc(NC(=O)c2cc3cc4c5c(c3oc2=N)CCCN5CCC4)cc1	GIV Gai3 FP -14
CC1CC(C)CN(C(=O)NC2(C(F)(F)F)Oc3ccc(Cl)cc3O2)C1 (configuration not stated)	none
COc1cccc(CNC(=O)C(C)N2Cc3ccccc3C2=O)c1 (configuration not stated)	none
COc1ccc(-c2noc(CC(=O)N3CCc4ccccc43)n2)cc1	none
CCCN(c1nc(C)c(Cl)c(OC)n1)S(=O)(=O)c1ccc(C)cc1	none
CN(C)c1ccc(C2C=C(c3ccccc3)Nc3ncnn32)cc1 (configuration not stated)	none (no result: HCMV NEC inh)
C1=C(c2ccccc2)Nc2ncnn2C1c1cccs1 (configuration not stated)	GIV Gai3 FP -24 (no result: HCMV NEC inh)
C1=C(c2ccc3c(c2)OCO3)Nc2ncnn2C1c1cccs1 (configuration not stated)	GIV Gai3 FP -22 (no result: HCMV NEC inh)
C1=C(c2ccccc2)Nc2ncnn2C1c1ccc2c(c1)OCO2 (configuration not stated)	none
O=S(=O)(Nc1ccc(C(F)(F)F)cn1)c1ccc(-c2ccccn2)s1	none
CCc1nnc(NC(=O)c2ccc3c(c2)S(=O)(=O)N=C2CCCCCN23)s1	none (no result: GIV Gai3 FP)
O=C(O)c1ccccc1C1=Nc2ccc(O)cc2Oc2cc(O)ccc21	GIV Gai3 FP -91
O=C(O)c1ccccc1-c1ccccc1C(=O)O	none
O=c1cc(O)c2sc(SCc3ccncc3)nc2[nH]1	none
Cc1ccccc1-n1nnnc1Sc1nnnn1-c1ccccc1	HCMV NEC inh 40 (no result: GIV Gai3 FP)
Cc1cccc(-n2c(Sc3nnnn3-c3ccccc3)nc3ccccc3c2=O)c1C	none (no result: GIV Gai3 FP)
CC1=C(C(=O)OCc2ccccc2)C2(O)C(=O)c3ccccc3C2(O)N1 (configuration not stated)	HCMV NEC inh 66 (no result: GIV Gai3 FP)
CCOC(=O)C1=C(C)NC2(O)c3ccccc3C(=O)C12O (configuration not stated)	none (no result: HCMV NEC inh)
COC(=O)c1ccc(COC(=O)c2cccnc2N)o1	none (no result: GIV Gai3 FP)
CCCCOC(=O)c1ccc(NC(=O)c2cc(=O)c3ccccc3o2)cc1	none
CCCCOC(=O)c1cccc(NC(=O)c2cc3ccccc3o2)c1	HCMV NEC inh 138
Cc1ccc2nc(NC(=O)c3nc(-c4ccccc4)oc3C)sc2c1	none (no result: GIV Gai3 FP)
O=C1C(c2c(O)[nH]c3ccccc23)=Nc2ccccc21	none (no result: GIV Gai3 FP)

Source: PubChem (ICCB-Longwood Screening Facility, Harvard Medical School)
